Measurements as given in patent publication US5869602A, “Peptide derivatives” (Novo Nordisk A/S, priority 1995, dated 1999).

Conditions: subcutaneous injection in pigs, external γ-counter

Arg^4,Arg^9,Lys^15 (N^ε -tetradecanoyl) somatostatin [Example 4]
T50% (time when 50% of the 125I-labelled peptide has disappeared from the site of injection): 1.7 ± 0.5 h
